Among the data in paper PMC8167055 are Kd values, retold here.

The assay deals with LC3B fused with mCherry (microtubule-associated protein light chain 3) (human) (UniProt Q9GZQ8). Description: ELISA; plate coated with 5 μg/ml mCherry-LC3B in PBS, blocked with BSA; serial dilutions of TPPP/p25 forms or SYN; detected by TPPP/p25 or SYN antibodies; apparent Kd from hyperbola with a single binding site.

Turning to “alpha-synuclein (SYN), human recombinant (from UniProt P37840 1-140) (natural protein)”, the Kd was 1.62 µM.
